Assay results from article PMC12592420, “A mismatch in enzyme-redox partnerships underlies divergent cytochrome P450 activities between human hepatocytes and microsomes” (Communications Biology, 2025).
Values joined by “and” are separate entries in the source; they are usually repeats but may differ in a detail not shown here. Equal values may be shown once.

Legend:
[1] = Free fraction in HLM incubation, equilibrium dialysis; assay type: in vitro ADME, human; conditions: fraction unbound, measured or estimated by in silico models of Fuinc
rat hepatocytes = assay: Free fraction in rat hepatocytes as surrogate for HH, equilibrium dialysis; conditions: fraction unbound, measured or estimated by in silico models of Fuinc
in vitro = conditions: both, human, hepatocytes
[2] = CLint in NADPH-supplemented human liver microsomes
NIH MDCKI-MDR1 cell line = assay: Efflux ratio in NIH MDCKI-MDR1 cells; conditions: 0.1 µM, individual wells
MDR1 (P-gp) = assay: Efflux ratio in NIH MDCKI-MDR1 cells; conditions: dog, pH 7.4, Efflux ratio, individual wells
[3] = Incubations in human liver S9 + NADPH (same donor pool as HLM); assay type: in vitro ADME; conditions: S9 + NADPH + 5 uM GEF (Fig. 6b)
[4] = test system: MDCKII-MDR1-BCRP cell line; assay: Efflux ratio in MDCKII-MDR1-BCRP cells; conditions: 0.1 µM, individual wells
MDR1 (P-gp), BCRP = assay: Efflux ratio in MDCKII-MDR1-BCRP cells; conditions: dog, pH 7.4, Efflux ratio, individual wells

| SMILES | fu_HLM [1] | fu_ratHH (rat hepatocytes) | hepatocyte CLint (in vitro; HH_CLint) | hepatocyte CLint (in vitro; Midazolam CLint) | HLM scaled CLint,u relative to HH ([2]; NADPH as cofactor (Fig. 3A)) | HLM/HH (ratio of scaled CLint,u) ([2]; NADPH-HLM average over HH average, Fig. 1) | Efflux ratio (NIH MDCKI-MDR1 cell line) | efflux ratio at 2 h, 0.1 µM (MDR1 (P-gp)) | Percentage of midazolam alone [3] | Efflux ratio [4] | efflux ratio at 2 h, 0.1 µM (MDR1 (P-gp), BCRP) | logD (physchem) |
| --- | --- | --- | --- | --- | --- | --- | --- | --- | --- | --- | --- | --- |
| COc1ccccc1OCCNCC(O)COc1cccc2[nH]c3ccccc3c12 (stereo not drawn) [Carvedilol] | 0.117 | 0.161 |  |  |  |  |  |  |  |  |  |  |
| Cc1ncc2n1-c1ccc(Cl)cc1C(c1ccccc1F)=NC2 [Midazolam] |  |  | 19.5 µL/min/1e6 cells | 22.3 µL/min/1e6 cells | over 5 fold | 12.6626 | 1.26 | 1.24 | 194.56% and 222.982% and 196.935% | 0.52 | 0.5 | 3.4 |
